Assay [1] in a line: Selectivity ratio of Ki for displacement of [3H]-DAMGO from rat MOR receptor to Ki for displacement of [3H]U69593 from human KOR. For orientation: Loss of bound radioactivity is the signal in a displacement assay; it reports binding, not function.
Assay [2] is described as follows: Selectivity ratio of Ki for displacement of [3H]DPDPE from rat DOR to Ki for displacement of [3H]U69593 from human KOR.
The target in assay [3] is Delta-type opioid receptor (Rattus norvegicus) (UniProt P33533). The assay is described as follows: Agonist activity at rat DOR expressed in CHO cell membrane assessed as stimulation of [35S]-GTPgammaS binding by measuring maximum efficacy incubated for 1 hr by liquid scintillation counting assay relative to control. As to conditions: filed as agonist.
Assay [4] has as its target Mu-type opioid receptor (Rattus norvegicus) (UniProt P33535). The assay can be described thus: Agonist activity at rat MOR expressed in CHO cell membrane assessed as stimulation of [35S]-GTPgammaS binding by measuring maximum efficacy incubated for 1 hr by liquid scintillation counting assay relative to control. Conditions: filed as agonist.

Chains of the proteins cited; added tags and fusions are not shown.
UniProt P33533, whole entry: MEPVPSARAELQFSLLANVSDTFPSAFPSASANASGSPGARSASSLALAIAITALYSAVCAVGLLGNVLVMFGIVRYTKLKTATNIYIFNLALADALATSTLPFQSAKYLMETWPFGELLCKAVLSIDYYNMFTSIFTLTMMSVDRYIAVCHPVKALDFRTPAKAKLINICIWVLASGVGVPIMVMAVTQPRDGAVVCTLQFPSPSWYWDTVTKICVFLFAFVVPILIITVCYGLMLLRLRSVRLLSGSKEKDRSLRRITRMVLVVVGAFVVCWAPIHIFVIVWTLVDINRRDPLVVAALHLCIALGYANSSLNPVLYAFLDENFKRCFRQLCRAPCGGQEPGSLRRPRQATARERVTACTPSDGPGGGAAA
UniProt P33535, whole entry: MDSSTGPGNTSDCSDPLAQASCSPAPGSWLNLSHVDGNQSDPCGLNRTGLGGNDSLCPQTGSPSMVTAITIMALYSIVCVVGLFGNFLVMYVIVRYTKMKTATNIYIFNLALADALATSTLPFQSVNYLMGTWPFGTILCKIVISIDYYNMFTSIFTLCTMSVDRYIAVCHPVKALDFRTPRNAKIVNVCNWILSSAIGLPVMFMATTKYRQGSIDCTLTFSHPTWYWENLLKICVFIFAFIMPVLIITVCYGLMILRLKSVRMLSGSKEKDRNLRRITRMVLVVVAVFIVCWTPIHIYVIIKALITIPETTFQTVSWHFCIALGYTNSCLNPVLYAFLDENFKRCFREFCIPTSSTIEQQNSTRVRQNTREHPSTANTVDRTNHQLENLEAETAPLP

Usually Emax stands for the greatest response seen or fitted, relative to the assay's reference.

With `COc1ccc2c3c1O[C@H]1[C@@]4(OC)CC[C@@]5(C[C@@H]4c4ccccc4NC(=O)Cc4ccccc4)[C@@H](C2)N(CC2CC2)CC[C@]315`, the figures for the Ratio Ki in assay [1] and in assay [2] were 2.3 and 4.5, respectively. Moreover, in assay [3], the maximal effect (Emax) turned out to be 168%.
In the case of `COc1ccc2c3c1O[C@H]1[C@@]4(OC)CC[C@@]5(C[C@@H]4c4ccccc4NCc4ccccc4)[C@@H](C2)N(CC2CC2)CC[C@]315`, the Ratio Ki in assay [1] was 270; in assay [2], 1080. In addition, the maximal effect (Emax) came out at 170% in assay [4] and 213% in assay [3].

The values above are taken from ChEMBL document CHEMBL5543159, “Discovery of an Ortho-Substituted N-Cyclopropylmethyl-7α-phenyl-6,14-endoethano-tetrahydronorthebaine Derivative as a Selective and Potent Kappa Opioid Receptor Agonist with Subsided Sedative Effect” (2024).
